Test results reported in ChEMBL document CHEMBL1131327, “Selective Pneumocystis carinii dihydrofolate reductase inhibitors: design, synthesis, and biological evaluation of new 2,4-diamino-5-substituted-furo[2,3-d]pyrimidines” (J Med Chem, 1998).

Legend:
Dihydrofolate reductase [1] = target: T1, Dihydrofolate reductase (Pneumocystis carinii, UniProt P16184)
T1 sequence (P16184 whole entry): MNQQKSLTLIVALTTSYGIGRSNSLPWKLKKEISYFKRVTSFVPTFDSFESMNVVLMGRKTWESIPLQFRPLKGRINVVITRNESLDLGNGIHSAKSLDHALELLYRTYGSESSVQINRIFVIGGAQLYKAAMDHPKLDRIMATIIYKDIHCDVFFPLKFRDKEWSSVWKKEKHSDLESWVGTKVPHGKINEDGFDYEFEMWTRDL

Dihydrofolate reductase [2] = target: T2, Dihydrofolate reductase (Rattus norvegicus, UniProt Q920D2)
T2 sequence (Q920D2 whole entry): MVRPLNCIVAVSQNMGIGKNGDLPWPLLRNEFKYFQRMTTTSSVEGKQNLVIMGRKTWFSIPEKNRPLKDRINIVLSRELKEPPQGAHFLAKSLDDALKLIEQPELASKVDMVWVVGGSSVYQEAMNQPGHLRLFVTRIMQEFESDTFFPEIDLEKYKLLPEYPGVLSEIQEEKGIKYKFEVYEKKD

[3] = target: T3, Bifunctional dihydrofolate reductase-thymidylate synthase (Toxoplasma gondii, UniProt Q07422)
T3 sequence (Q07422 whole entry): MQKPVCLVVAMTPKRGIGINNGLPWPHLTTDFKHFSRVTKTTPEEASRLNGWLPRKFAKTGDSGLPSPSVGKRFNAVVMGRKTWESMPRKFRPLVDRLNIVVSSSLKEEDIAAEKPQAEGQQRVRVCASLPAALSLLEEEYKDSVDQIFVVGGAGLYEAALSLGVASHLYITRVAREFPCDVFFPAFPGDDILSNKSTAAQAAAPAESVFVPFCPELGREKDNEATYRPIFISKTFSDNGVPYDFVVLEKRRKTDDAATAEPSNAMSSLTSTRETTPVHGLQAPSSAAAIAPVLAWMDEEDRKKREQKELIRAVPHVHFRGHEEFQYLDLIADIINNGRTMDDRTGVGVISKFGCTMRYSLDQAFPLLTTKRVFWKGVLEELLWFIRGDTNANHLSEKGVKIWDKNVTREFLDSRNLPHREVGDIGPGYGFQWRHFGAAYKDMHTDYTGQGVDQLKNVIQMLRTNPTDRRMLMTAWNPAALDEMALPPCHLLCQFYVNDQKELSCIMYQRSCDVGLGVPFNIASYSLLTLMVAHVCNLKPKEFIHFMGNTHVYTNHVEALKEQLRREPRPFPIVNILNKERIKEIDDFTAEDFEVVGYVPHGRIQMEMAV

Compound | IC50 (Dihydrofolate reductase [1]) [µM] | IC50 (Dihydrofolate reductase [2]) [µM] | IC50 [3] [µM]
Nc1nc(N)c2c(CNc3ccc(Oc4ccccc4)cc3)coc2n1 | 8.1 | 16.2 | –
Nc1nc(N)c2c(CNc3cccc4ccccc34)coc2n1 | – | 12 | –
CN(Cc1coc2nc(N)nc(N)c12)c1cc(Cl)c(Cl)c(Cl)c1 | – | 34.3 | 21.5
